# From US20040002079A1, “Sodium-phosphate cotransporter in lithium therapy for the treatment of mental illness” (priority 1998, published 2004)
# Tests used:
# [1] = biological target: T1, sodium-phosphate cotransporter (Homo sapiens, UniProt Q8WUM9); test: Na-dependent 32PO4 influx into erythroleukemic K562 cells; type: cell-based; parameters: influx into the erythroleukemic line of K562 cells was measured; endogenous in cells; host or cells: K562 erythroleukemic cells
# T1 sequence (Q8WUM9 1-679): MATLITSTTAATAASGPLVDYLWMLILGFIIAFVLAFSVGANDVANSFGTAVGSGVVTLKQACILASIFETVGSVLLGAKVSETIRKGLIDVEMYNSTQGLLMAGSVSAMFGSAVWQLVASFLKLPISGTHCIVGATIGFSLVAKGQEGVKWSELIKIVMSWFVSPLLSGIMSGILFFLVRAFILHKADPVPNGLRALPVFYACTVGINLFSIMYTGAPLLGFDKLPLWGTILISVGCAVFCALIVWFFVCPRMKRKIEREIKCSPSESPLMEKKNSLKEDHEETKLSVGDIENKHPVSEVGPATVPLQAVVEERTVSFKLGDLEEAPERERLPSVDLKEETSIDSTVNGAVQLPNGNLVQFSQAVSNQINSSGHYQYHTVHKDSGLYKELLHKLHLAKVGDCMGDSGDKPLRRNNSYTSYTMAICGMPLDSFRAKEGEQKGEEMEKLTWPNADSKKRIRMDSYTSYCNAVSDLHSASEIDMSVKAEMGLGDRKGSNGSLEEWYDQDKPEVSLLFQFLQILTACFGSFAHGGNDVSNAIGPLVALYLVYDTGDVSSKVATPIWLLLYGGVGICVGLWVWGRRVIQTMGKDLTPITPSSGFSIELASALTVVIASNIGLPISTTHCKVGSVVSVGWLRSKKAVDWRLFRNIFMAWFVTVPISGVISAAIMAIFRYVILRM
# [2] = biological target: T1, sodium-phosphate cotransporter; type: cell-based; parameters: influx into the erythroleukemic line of K562 cells was measured; endogenous in cells; host or cells: K562 erythroleukemic cells; conditions: 1, 7.5 and 75 mM external sodium
# [3] = biological target: T1, sodium-phosphate cotransporter; conditions: external phosphate, with external lithium and 10^-5 M ouabain
molecule,measurement,setting,value
[Na+] [sodium],K1/2^Na for 32PO4 influx,[1],40 mM
same,activation of 32PO4 influx compared to isomolar N-methyl-D-glucamine,[1],over 100 fold
same,effect on lithium activation of phosphate influx,[2],increased
[Cs+] [Cs],activation of phosphate influx,[1],no activation
arsenate,Ki,[1]; read-out: K1 value for inhibition of Na-dependent 32PO4 influx,2600 µM
"[Li] [lithium, Lithium]",phosphate influx relative to that in the presence of 140 mM Na,"[1]; 140 mM Li, K562 cells",18.7%
phosphate,Vmax of 32PO4 influx,"[1]; pH 7.4 at 37° C., 140 mM Na",4500 nmol PO4/g protein−min
same,Km,"[1]; pH 7.4 at 37° C., 140 mM Na, read-out: Km^PO4 for activation of 32PO4 influx by extracellular phosphate",360 µM
same,effect on lithium-stimulated Na efflux,[3],further stimulated
